Measured values from ChEMBL document CHEMBL1140644, “New modifications to the area of pyrazole-naphthyl urea based p38 MAP kinase inhibitors that bind to the adenine/ATP site” (Bioorg Med Chem Lett, 2007).

Species: Homo sapiens
Assay: Protein binding in human plasma by equilibrium dialysis
Conditions: read-out: PPB

fraction unbound: < 0.03
Structure (SMILES): Cc1ccc(-n2nc(C(C)(C)C)cc2NC(=O)Nc2ccc(-c3ccc(CN4CCOCC4)nc3)c3ccccc23)cc1
